Reference: patent publication US8809342B2, “Glucagon receptor modulators” (Pfizer Inc., priority 2010, dated 2014)

Protein sequences, listed by entry. Tags and fused reporters are not part of them. Residues count along the entry.
UniProt P47871, 26-477 limits assumed: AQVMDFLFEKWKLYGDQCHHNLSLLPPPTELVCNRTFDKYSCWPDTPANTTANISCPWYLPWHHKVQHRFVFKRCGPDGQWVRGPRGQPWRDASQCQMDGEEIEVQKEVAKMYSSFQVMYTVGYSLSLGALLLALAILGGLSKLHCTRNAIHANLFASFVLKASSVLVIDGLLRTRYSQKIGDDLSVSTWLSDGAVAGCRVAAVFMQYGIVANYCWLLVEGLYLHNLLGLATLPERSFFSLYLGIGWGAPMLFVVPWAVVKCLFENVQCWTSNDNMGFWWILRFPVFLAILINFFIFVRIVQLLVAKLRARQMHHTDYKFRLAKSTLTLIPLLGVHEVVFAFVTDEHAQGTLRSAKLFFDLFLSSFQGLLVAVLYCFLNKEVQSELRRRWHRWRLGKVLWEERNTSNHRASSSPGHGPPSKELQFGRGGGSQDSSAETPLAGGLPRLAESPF

Molecular target: human glucagon receptor (Homo sapiens, UniProt P47871)
Test: Glucagon cAMP assay (Cisbio cAMP detection)
Format: cell-based
Details: read-out: cAMP kb (nm); CHOK1 cells stably transfected with the human glucagon receptor; 100 pM glucagon challenge; Kb calculated from IC50 with a modified Cheng-Prusoff equation

SMILES	Kb
O=C(O)CCNC(=O)c1ccc(NC(c2ccc(-c3ccc(F)cc3)cc2)C2CCCC2)nc1 (single isomer, unassigned) [Example 4.26]	57 nM
O=C(O)CCNC(=O)c1ccc(NC(c2ccc(-c3ccc(F)cc3)cc2)C2CCCC2)nc1 (single isomer, unassigned) [Example 4.27]	310 nM
